According to ChEMBL document CHEMBL5230101, “Unique Domain for a Unique Target: Selective Inhibitors of Host Cell DDX3X to Fight Emerging Viruses” (J Med Chem, 2020):

What was measured:
Homo sapiens [1] = species: Homo sapiens; assay: Selectivity ratio of ID50 for human recombinant full length DDX3X R262A mutant helicase activity to ID50 for human recombinant full length DDX3X helicase activity
[2] = Selectivity ratio of ID50 for Hepatitis C virus NSP 3 helicase activity to ID50 for human recombinant full length DDX3X helicase activity
Homo sapiens [3] = species: Homo sapiens; assay: Selectivity ratio of ID50 for human DDX1 helicase activity to ID50 for human recombinant full length DDX3X helicase activity
[4] = Selectivity ratio of ID50 for Arabidopsis thaliana STRS2 helicase activity to ID50 for human recombinant full length DDX3X helicase activity
Homo sapiens [5] = species: Homo sapiens; assay: Selectivity ratio of ID50 for human recombinant full length DDX3X E256A mutant helicase activity to ID50 for human recombinant full length DDX3X helicase activity

Row | Ratio (Homo sapiens [1]) | Ratio [2] | Ratio (Homo sapiens [3]) | Ratio [4] | Ratio (Homo sapiens [5]) | SMILES
1 | 0.6 | > 10000 | 8280 | > 10000 | 43 | NC[C@@H](O)CN(c1ccccc1)c1ccccc1
2 | 0.5 | > 50000 | 9000 | > 50000 | 36500 | NCC(O)CN(c1ccccc1)c1ccccc1 (racemic)
